# Bioassay records from PubChem BioAssay.
# An excerpt weighted towards active compounds, which were near 2.8% of everything screened.
# E-selectin induc – induces E-selectin expression in human endothelial cells | activation, % at 7.58 µM | 260,000 tested, 0.37% active | HUVEC E-selectin immunofluorescence imaging; normalized: neutral wells 0, TNF-alpha wells 100 | P16581;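 active = mean E-selectin-positive cell signal at least 10% of the positive control, reached in at least 60% of replicates, without over 20% cell loss; inconclusive = no rule given, readout overlaps actives, possibly toxicity-flagged; inactive = the rest, including those meeting only one limit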
#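 Test system: HUVEC; input: 3,000 HUVEC/well; measured by: immunofluorescence imaging; read-out: % PE-positive cells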
# Yeast UUG start – modulators of start codon recognition fidelity in yeast. S. cerevisiae UUG-firefly luciferase reporter, luminescence/redox ratio. activity score, % at 18.7 µM. 0.13% of 350,000 active. AID 602363;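 active = replicate mean at a twofold rise or more, about +100% in these data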;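 also: firefly luciferase made from a UUG start codon reports start codon fidelity; reporter light over untreated wells divided by growth signal over untreated wells; some hits fall short of that in this replicate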
# PglD inh – PglD (C. jejuni) enzyme inhibition. AID 602405. purified PglD enzyme, DTNB colorimetric CoA detection. inhibition, % at 12.5 µM. 360,000 tested, 0.098% active; in the data active = inhibition above about 16%, passing the limit was not always enough; inconclusive = no clear call, values can overlap the other calls
# PGC1a acetyl inh – PGC1a acetylation modulation, inhibitor mode | U2OS PGC1a acetylation, AlphaScreen anti-acetyl-lysine; with virally co-expressed GCN5 acetyltransferase | inhibition, % at 15.6 µM | 350,000 tested, 0.17% active;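 active = every replicate shows inhibition of at least 40%; inconclusive = mean inhibition at least 40% but some replicate below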;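 note: 0% = neutral control wells and 100% = positive control wells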
# esBAF inh – inhibitors of esBAF chromatin remodeling in mouse ES cells; reporter increase, % at 12.5 µM; 350,000 tested, 2% active; Bmi1-luciferase knock-in reporter, 24 h; 100% = twice the neutral-well signal; in the data active = activation above about 40%; inconclusive = no clear call, values can overlap the other calls;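 note: 0% = median of the plate's neutral control wells and 100% = double that signal; a rise in the Bmi1 reporter signal indicates esBAF inhibition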
# C2C12 statin – protects C2C12 myotubes from simvastatin toxicity; ATP luminescence, 48 h; scaled: DMSO 0, geranylgeraniol control 100; rescue of ATP level, % at 7.49 µM; 330,000 tested, 0.78% active;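 active = mean ATP rescue above about 67%, or every replicate alone reaching that limit, limit read from the data, passing the limit was not always enough; inconclusive = no clear call, values can overlap the other calls; inactive = mean under the limit and some replicate under it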;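 note: myotubes were challenged with 10 µM simvastatin during compound exposure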
# Active calls of the source: *; ? = inconclusive; . = no result.
entry	compound	esBAF inh	C2C12 statin	Yeast UUG start	E-selectin induc	PGC1a acetyl inh	PglD inh
1	CN(C)CC(=O)N1[C@@H]2c3ccc(-c4ccccc4)c(=O)n3C[C@H]1[C@H](CO)[C@H]2C(=O)N1CCOCC1	-2	-9	.	0	.	1
2	CC(C)(C)c1ccc(C(=O)N2CCCC2)s1	47*	-15	-3	0	3	-4
3	CO[C@H]1CN(C)C(=O)c2cc(NC(=O)c3ccccc3)ccc2OC[C@H](C)N(C(C)=O)C[C@H]1C	-1	0	2	0	2	0
4	c1ccn2c(c1)nc1c2nc2ccccn21	?	168*	-19	.	-37	-1
5	CO[C@H]1CN(C)C(=O)c2cc(NC(=O)C3CCC3)ccc2OC[C@H](C)NC[C@H]1C	3	-16	-12	0	.	-1
6	CC1=CC(=C2N=C(c3ccccc3)OC2=O)C=C(C)O1	64*	-11	6	.	7	-5
7	CC(=O)N(C)C[C@@H]1Oc2ncc(C#Cc3ccccc3)cc2C(=O)N([C@@H](C)CO)C[C@H]1C	3	20	-6	0	9	1
8	Cc1cc(C)cc(N2CN=C3SCC(=O)N3C2)c1	.	.	6	.	5	-1
9	COc1ccc(N2CN=C3SCC(=O)N3C2)cc1	8	106*	-15	-1	-1	9
10	c1ccc(CN2CN=C(Nc3nc4ccccc4s3)NC2)cc1	8	-5	-12	.	3	-4
11	c1coc(CN2CN=C(Nc3nc4ccccc4s3)NC2)c1	51*	4	-14	.	0	0
12	Cc1ccc(-c2ccc(CCC(=O)O)n2-c2cccc(O)c2)cc1	63*	1	4	.	-1	-3

# Next section
entry	compound	esBAF inh	C2C12 statin	Yeast UUG start	E-selectin induc	PGC1a acetyl inh	PglD inh
13	CC(C)(C)c1ccc(C(=O)NCCC(=O)N2CCCC2)cc1	47*	-8	-14	0	-10	-7
14	Nc1cccc(C#Cc2ccc3c(=O)c4ccccc4oc3c2)c1	53*	-25	-18	1	.	2
15	Cn1c2ccccc2c(=O)c2cc(C#Cc3ccc(N)cc3)ccc21	1	-21	-17	1	.	-2
16	Nc1ccc(C#Cc2ccc3oc4ccccc4c(=O)c3c2)cc1	42*	13	-17	0	.	10
17	O=c1c2ccccc2oc2cc(C#Cc3ccccn3)ccc12	-25	-8	-13	0	6	-3
18	CC(=O)c1ccc2oc3ccccc3c(=O)c2c1	44*	8	-8	0	3	-5
19	CC(=O)N(C)C[C@@H]1Oc2ncc(-c3ccccc3C)cc2C(=O)N([C@@H](C)CO)C[C@@H]1C	4	-8	-26	0	12	2
20	COc1ccc(C(=O)/C=C/Nc2cc(C)on2)c(OC)c1	66*	3	-10	.	.	4
21	COc1ccc(OC)c(C(=O)/C=C/c2ccccc2C(F)(F)F)c1	5	44	-18	.	46*	9
22	COc1ccc(OC)c(N/C=C/C(=O)c2ccccc2)c1	-80	-24	-85	1	.	-3
23	COc1cccc(/C=C/C(=O)c2ccc[nH]2)c1	60*	11	-11	.	7	4
24	COc1cccc(/C=C/C(=O)c2ccc(C)c([N+](=O)[O-])c2)c1	.	.	-9	6	-2	8

# (further entries)
entry	compound	esBAF inh	C2C12 statin	Yeast UUG start	E-selectin induc	PGC1a acetyl inh	PglD inh
25	COc1ccc(C(=O)/C=C/c2ccccc2)c(OC)c1	86*	-6	-21	.	39	-6
26	Cc1cc(C(=O)Nc2ccc3c(c2)C(=O)N(C)[C@H]2CC[C@H](CC(=O)N[C@H](C)c4ccccc4)O[C@H]2CO3)no1	5	24	11	0	-8	1
27	O=C(Nc1ccccc1F)N[C@@H]1CC[C@@H](CCNS(=O)(=O)c2ccc(F)cc2)O[C@@H]1CO	6	2	-1	0	-25	-1
28	CCC(CO)Nc1ccn2nc(-c3ccccc3)cc2n1 (stereo not drawn)	69*	4	-16	1	-17	4
29	CCC(CO)Nc1ccn2nc(-c3cc(OC)c(OC)c(OC)c3)cc2n1 (stereo not drawn)	-6	5	1	0	-17	-1
30	CCC(CO)Nc1ccn2nc(-c3cccs3)cc2n1 (stereo not drawn)	55*	4	-13	0	.	0
31	C[C@H]1CCCCO[C@@H](CN(C)C(=O)C2CCCCC2)[C@@H](C)CN([C@@H](C)CO)C(=O)c2cc(NC(=O)NC3CCCCC3)ccc2O1	-4	-35	2	.	-6	2

# 3 structures already listed, ordered by length of the SMILES, falling.
entry	compound	esBAF inh	C2C12 statin	Yeast UUG start	E-selectin induc	PGC1a acetyl inh	PglD inh
31	C[C@H]1CCCCO[C@@H](CN(C)C(=O)C2CCCCC2)[C@@H](C)CN([C@@H](C)CO)C(=O)c2cc(NC(=O)NC3CCCCC3)ccc2O1	-4	-35	2	.	-6	2
27	O=C(Nc1ccccc1F)N[C@@H]1CC[C@@H](CCNS(=O)(=O)c2ccc(F)cc2)O[C@@H]1CO	6	2	-1	0	-25	-1
30	CCC(CO)Nc1ccn2nc(-c3cccs3)cc2n1 (stereo not drawn)	55*	4	-13	0	.	0
